Results as given in patent US5691455A, “Gonadotropins with non-native disulfide bridges” (Akzo Nobel N.V., priority 1995, dated 1997).

Columns and labels:
[1] = Western blot analysis of intersubunit disulfide formation (SDS solubilisation at 100° C.); format: physicochemical; settings: absence of β-mercapto ethanol, cell culture supernatants, Western blot with β-hCG specific monoclonal antibody
Method: FIG. 2: Western blot analysis of cell culture supernatants from hCG interchain 1, hCG interchain 2 and hCG wild type for the expression of hCG (muteins) and formation of intersubunit disulfide bridges. Cell culture supernatants from G418-resistant transfection pools hCG interchain 1, hCG interchain 2 and from rec-hCG wild type containing approx. 0.2 IU hCG were solubilised at room temperature (Panel A) or 100° C. (Panels B and C) in SDS-containing sample buffer in the absence (Panels A and B) or presence of β-mercapto ethanol (Panel C). Following electrophoresis and transfer to PVDF membranes hCG was visualised by incubation with a β-hCG specific mononclonal antibody followed by incubation with a second antibody-HRP conjugate and staining with TMB. […] Addition of reducing agent results in the dissociation into subunits in all three samples (Panel C). The combined data thus lead to the conclusion that both HCG interchain 1 and 2 are stabilised by a intermolecular disulfide bridge.
In order to determine whether the newly introduced cysteines had oxidised into an intersubunit disulfide bond, samples from cell culture supernatants from G418-resistant transfection pools were dissolved by boiling in SDS-containing sample buffer, subjected to SDS-polyacrylamide gel electrophoresis and transferred to a PVDF membrane. hCG was visualised using immunostaining with a monoclonal antibody directed against the β subunit followed by incubation with a second antibody conjugated to horse radish peroxidase (HRP) and staining with tetramethyl benzidine (TMB)/Co^++ /H2 O2. When an intersubunit disulfide bond had formed, boiling of samples in SDS-sample buffer would keep the two subunits together whereas these solubilisation conditions would cause dissociation into subunits in case no disulphide bridge was formed. In control experiments samples were solubilised without reducing agent at room temperature (intact hCG) and by addition of β-mercapto ethanol (βME). In the latter case denaturation into subunits will occur, irrespective of the presence of interchain disulfide bond. […]

[2] = tested on: LH/CG receptor; assay: LH/CG-receptor binding, displacement of iodinated hCG to rat testis membranes; settings: [125I]hCG, room temperature, 18 h
Method: Binding to the LH/CG receptor is the first event in the mechanism of action of hCG. An in vitro receptor assay was used to determine the relative receptor binding potency of hCG interchain muteins by means of displacement of iodinated hCG to rat testis membranes (Rao et al., 1977). For this purpose a fixed amount of [125I]hCG was incubated with rat testis membranes and increasing amounts of sample at room temperature for 18 h. Additional incubations without sample were performed for the assessment of maximal binding. Non-specific binding was determined by adding a 1000 fold excess of unlabeled ligand (Pregnyl, Organon, West Orange, N.J.). Incubation was terminated by diluting the samples 2-fold with ice-cold Tris buffer supplemented with 0.1% BSA and centrifugation at room temperature for 5 rain at 150.000×N.kg-1. After aspiration of the supernatant, radioactivity in the pellet was determined using a gamma counter.

[3] = tested on: mouse Leydig cells; assay: hCG-induced testosterone production in mouse Leydig cells; format: cell-based
Excerpt: hCG induces testosterone production in mouse Leydig cells. An in vitro assay (Van Damme et al., 1974 modified by Mannaerts et al., 1987) is used to determine the hCG bioactivity of the hCG muteins containing the interchain disulphide bonds (FIG. 4). […] Therefore, hCG interchain 1 can be regarded as a full hCG agonist.

displacement of iodinated hCG (relative receptor binding potency) [2] | Substance | intact hormone versus dissociation into subunits upon boiling in SDS-containing sample buffer [1] | testosterone production (in vitro hCG bioactivity, signal transducing ability) [3] | intact hormone versus dissociation into subunits upon boiling in SDS-containing sample buffer ([1]; listed as WT-hCG)
comparable to rec-hCG wild type | hCG interchain 1: hCG mutein with non-native intersubunit disulfide bridge Tyr α37 Cys - Ile β33 Cys | detection of intact hormone | same potency as rec-hCG wild type | 
 | rec-hCG wild type: recombinant wild-type hCG expressed in CHO cells, control | dissociates into subunits |  | boiling dissociates the hormone into its subunits
